Experimental data: ChEMBL document CHEMBL1140106, “Blocking estrogen signaling after the hormone: pyrimidine-core inhibitors of estrogen receptor-coactivator binding” (J Med Chem, 2008)

Chains of the proteins cited; added tags and fusions are not shown.
UniProt P03372, whole entry: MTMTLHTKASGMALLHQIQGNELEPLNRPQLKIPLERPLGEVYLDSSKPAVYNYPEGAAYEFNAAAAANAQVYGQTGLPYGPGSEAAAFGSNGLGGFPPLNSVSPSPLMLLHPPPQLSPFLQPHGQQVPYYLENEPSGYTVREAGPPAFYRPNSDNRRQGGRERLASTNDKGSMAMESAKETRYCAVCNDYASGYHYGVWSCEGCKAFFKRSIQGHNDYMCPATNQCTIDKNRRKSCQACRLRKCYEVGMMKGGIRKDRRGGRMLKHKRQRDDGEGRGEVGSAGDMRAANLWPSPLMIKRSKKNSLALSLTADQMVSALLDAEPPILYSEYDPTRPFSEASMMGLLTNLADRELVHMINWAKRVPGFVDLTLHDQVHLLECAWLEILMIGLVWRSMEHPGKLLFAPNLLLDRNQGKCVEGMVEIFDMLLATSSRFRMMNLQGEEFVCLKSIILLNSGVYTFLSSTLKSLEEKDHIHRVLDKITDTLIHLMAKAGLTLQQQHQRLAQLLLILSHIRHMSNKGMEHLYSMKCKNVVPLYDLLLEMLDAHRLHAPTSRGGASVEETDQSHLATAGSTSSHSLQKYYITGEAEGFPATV
UniProt Q92731, whole entry: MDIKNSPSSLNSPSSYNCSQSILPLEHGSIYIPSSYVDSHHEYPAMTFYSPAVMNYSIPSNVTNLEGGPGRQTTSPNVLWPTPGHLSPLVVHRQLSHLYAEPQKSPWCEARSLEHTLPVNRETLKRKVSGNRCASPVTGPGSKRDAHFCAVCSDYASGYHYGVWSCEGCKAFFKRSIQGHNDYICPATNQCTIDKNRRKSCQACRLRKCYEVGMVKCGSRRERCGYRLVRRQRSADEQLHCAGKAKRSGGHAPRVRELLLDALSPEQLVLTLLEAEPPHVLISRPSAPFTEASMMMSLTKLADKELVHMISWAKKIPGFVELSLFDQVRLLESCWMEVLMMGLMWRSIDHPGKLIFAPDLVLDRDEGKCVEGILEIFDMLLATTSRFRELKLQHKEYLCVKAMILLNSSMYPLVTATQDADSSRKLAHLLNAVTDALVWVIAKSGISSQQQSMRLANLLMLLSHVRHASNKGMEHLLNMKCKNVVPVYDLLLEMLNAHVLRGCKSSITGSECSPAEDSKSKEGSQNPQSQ

Experiments:
[1] = molecular target: T1, Estrogen receptor (Homo sapiens, UniProt P03372); experiment: Binding affinity to ERalpha assessed as inhibition of fluorescein-labeled nuclear receptor domain of steroid receptor coactivator 3 by TR-FRET assay
How it was run: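 Fluorescein-SRC-3-NRD (50 nM) was then added for 1 h at room temperature in the dark. Buffer: 20 mM Tris pH 7.5, 0.01% NP40, 50 mM NaCl. SRC-1 Box II peptide served as positive control.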

[2] = molecular target: Estrogen receptor beta (Homo sapiens, UniProt Q92731); experiment: Binding affinity to ERbeta assessed as inhibition of fluorescein-labeled nuclear receptor domain of steroid receptor coactivator 3 by TR-FRET assay
[3] = molecular target: T1, Estrogen receptor; experiment: Binding affinity to ERalpha assessed as inhibition of steroid receptor coactivator 2 interaction by fluorescence polarization assay
[4] = molecular target: T1, Estrogen receptor; experiment: Antagonist activity at ERalpha in human HEC1 cells assessed as inhibition of estrogen-induced transcriptional activity after 24 hrs by reporter gene assay; format: functional, cell-based, HEC-1
How it was run: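 HEC-1 cells, which lack endogenous ER, were lipofectin-transfected with full-length ERα vector, 2ERE-luciferase reporter and pCMV β-gal as internal control. After 6 h the medium was changed to 5% charcoal-dextran-treated calf serum with ligands.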

Row | Structure (SMILES) | Ki [1] [µM] | Ki [2] [µM] | Ki [3] [µM] | IC50 [4] [µM]
1 | CCCCc1cc(NCCC)nc(NCCC)n1 | 16 | > 1000 | 32 | 13
2 | CCc1cc(NCC(C)C)nc(NCC(C)C)n1 | 10 |  |  | 7.3
3 | CC(C)CNc1nc(CCc2ccccc2)cc(N(C)CC(C)C)n1 | 8.4 |  |  | 5.5
4 | CC(C)CNc1cc(/C=C/c2ccccc2)nc(NCC(C)C)n1 | 7.5 |  |  | 6.9
5 | CC(C)CCc1cc(NCc2cccc3ccccc23)nc(NCC(C)C)n1 | 2.4 |  |  | 6.7
6 | CC(C)CNc1cc(CCc2ccccc2)nc(NCc2ccccc2)n1 | 7.6 |  |  | 4.5
7 | CC(C)CNc1nc(CCc2cccc3ccccc23)cc(N(C)CC(C)C)n1 | 2.4 |  |  | 4.4
